Laboratory results published in ChEMBL document CHEMBL5518170, “Dual target PARP1/EZH2 inhibitors inducing excessive autophagy and producing synthetic lethality for triple-negative breast cancer therapy” (Eur J Med Chem, 2024).

Sequences of proteins named here, by UniProt entry; tags and fusion partners are left off.
UniProt P09874, whole entry: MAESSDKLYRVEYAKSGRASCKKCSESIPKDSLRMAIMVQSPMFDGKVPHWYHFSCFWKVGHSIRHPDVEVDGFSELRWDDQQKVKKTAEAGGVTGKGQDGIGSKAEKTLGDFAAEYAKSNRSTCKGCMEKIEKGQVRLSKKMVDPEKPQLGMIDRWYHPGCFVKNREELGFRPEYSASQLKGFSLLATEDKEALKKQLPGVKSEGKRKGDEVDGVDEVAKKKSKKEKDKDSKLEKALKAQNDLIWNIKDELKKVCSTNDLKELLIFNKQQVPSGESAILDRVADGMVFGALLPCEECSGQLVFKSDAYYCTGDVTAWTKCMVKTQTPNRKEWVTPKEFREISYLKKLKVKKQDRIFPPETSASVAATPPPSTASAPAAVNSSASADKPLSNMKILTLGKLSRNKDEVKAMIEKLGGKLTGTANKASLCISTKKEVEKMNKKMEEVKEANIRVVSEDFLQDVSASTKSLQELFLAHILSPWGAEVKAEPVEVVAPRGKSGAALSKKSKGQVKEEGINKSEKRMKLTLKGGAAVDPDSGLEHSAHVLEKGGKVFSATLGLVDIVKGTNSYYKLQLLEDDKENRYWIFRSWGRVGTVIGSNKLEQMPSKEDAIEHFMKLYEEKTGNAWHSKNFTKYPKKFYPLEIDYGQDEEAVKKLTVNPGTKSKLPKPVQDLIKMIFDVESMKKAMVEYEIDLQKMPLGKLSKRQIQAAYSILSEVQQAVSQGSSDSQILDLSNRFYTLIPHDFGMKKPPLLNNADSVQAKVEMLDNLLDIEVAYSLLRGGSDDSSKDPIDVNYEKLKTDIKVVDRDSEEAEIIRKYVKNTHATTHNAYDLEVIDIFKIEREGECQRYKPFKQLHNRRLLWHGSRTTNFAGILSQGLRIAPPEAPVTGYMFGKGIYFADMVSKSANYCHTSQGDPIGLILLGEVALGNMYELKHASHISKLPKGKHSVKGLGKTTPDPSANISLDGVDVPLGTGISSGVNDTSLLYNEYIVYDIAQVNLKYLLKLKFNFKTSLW
UniProt Q15910, whole entry, looked up: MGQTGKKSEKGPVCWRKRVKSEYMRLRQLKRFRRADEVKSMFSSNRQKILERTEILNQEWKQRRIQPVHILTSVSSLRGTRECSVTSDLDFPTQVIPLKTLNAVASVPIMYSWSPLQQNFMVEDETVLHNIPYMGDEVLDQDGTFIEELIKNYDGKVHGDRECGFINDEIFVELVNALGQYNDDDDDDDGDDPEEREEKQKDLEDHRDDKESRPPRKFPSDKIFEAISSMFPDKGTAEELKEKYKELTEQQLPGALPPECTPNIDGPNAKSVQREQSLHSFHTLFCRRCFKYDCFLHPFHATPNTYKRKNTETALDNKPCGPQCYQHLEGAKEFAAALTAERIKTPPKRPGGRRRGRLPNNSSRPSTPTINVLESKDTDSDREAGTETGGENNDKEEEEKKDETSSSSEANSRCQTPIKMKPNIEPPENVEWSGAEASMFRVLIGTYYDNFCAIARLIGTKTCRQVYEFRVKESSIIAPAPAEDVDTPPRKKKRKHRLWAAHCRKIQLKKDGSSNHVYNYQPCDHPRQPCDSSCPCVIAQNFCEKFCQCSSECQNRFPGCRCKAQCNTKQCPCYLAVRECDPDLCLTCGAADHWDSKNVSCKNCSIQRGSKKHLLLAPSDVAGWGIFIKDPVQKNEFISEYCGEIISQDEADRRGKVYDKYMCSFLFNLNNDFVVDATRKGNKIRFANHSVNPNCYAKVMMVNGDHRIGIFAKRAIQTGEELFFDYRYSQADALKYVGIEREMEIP

Legend:
[1] = target: Poly [ADP-ribose] polymerase 1 (Homo sapiens) (UniProt P09874); details: dose 20.0 nM, time 70.0 min
[2] = target: Poly [ADP-ribose] polymerase 1 (Homo sapiens) (UniProt P09874); details: dose 100.0 nM, time 70.0 min
[3] = target: Histone-lysine N-methyltransferase EZH2 (Homo sapiens) (UniProt Q15910)
[4] = target: Histone-lysine N-methyltransferase EZH2 (Homo sapiens) (UniProt Q15910); remark: listed apart in the source

Structure (SMILES)	inhibition [1] [%]	inhibition [2] [%]	Kdiss [3] [s⁻¹]	Ka [4]
CCn1ncc2c(C(=O)NCc3c(C)cc(C)[nH]c3=O)cc(-c3ccc(-c4nc5c(C(N)=O)cccc5[nH]4)cc3)cc21	2.52	20.4	–	–
Cc1cc(C)c(CNC(=O)c2cc(-c3ccc(-c4nc5c(C(N)=O)cccc5[nH]4)cc3)cc3c2ccn3C(C)C)c(=O)[nH]1	15.7	17.2	–	–
CCNc1cc(-c2ccc(-c3nc4c(C(N)=O)cccc4[nH]3)cc2)cc(C(=O)NCc2c(C)cc(C)[nH]c2=O)c1C	9.04	33.9	–	–
CC(=O)Nc1cc(-c2ccc(Cc3nc4c(C(N)=O)cccc4[nH]3)cc2)cc(C(=O)NCc2c(C)cc(C)[nH]c2=O)c1C	8.53	36.5	–	–
CC(=O)Nc1cc(-c2ccc(-c3nc4c(C(N)=O)cccc4[nH]3)cc2)cc(C(=O)NCc2c(C)cc(C)[nH]c2=O)c1C	25.9	39	–	–
CCC(=O)Nc1cc(-c2ccc(-c3nc4c(C(N)=O)cccc4[nH]3)cc2)cc(C(=O)NCc2c(C)cc(C)[nH]c2=O)c1C	12.2	47.9	–	–
CCn1ccc2c(C(=O)NCc3c(C)cc(C)[nH]c3=O)cc(-c3ccc(Cc4nc5c(C(N)=O)cccc5[nH]4)cc3)cc21	2.12	11.4	–	–

Now from value to compound:

inhibition [1] [%]	inhibition [2] [%]	Kdiss [3] [s⁻¹]	Ka [4]	Structure (SMILES)
–	–	0.035	5.83 10^5/M/s	CC[C@H](C)n1cc(C)c2c(C(=O)NCc3c(C)cc(C)[nH]c3=O)cc(-c3ccc(N4CCNCC4)nc3)cc21 [GSK2816126]
42.1	68.3	–	–	Cc1cc(C)c(CNC(=O)c2cc(-c3ccc(Cc4nc5c(C(N)=O)cccc5[nH]4)cc3)cc3c2cnn3C(C)C)c(=O)[nH]1
–	42.1	–	–	CCNc1cc(-c2ccc(Cc3nc4c(C(N)=O)cccc4[nH]3)cc2)cc(C(=O)NCc2c(C)cc(C)[nH]c2=O)c1C
